The source of these data is PubChem BioAssay AID690 (Sanford-Burnham Center for Chemical Genomics, 2007).

Amino acid sequences for entries named in this document (tags omitted).
UniProt P05187, whole entry: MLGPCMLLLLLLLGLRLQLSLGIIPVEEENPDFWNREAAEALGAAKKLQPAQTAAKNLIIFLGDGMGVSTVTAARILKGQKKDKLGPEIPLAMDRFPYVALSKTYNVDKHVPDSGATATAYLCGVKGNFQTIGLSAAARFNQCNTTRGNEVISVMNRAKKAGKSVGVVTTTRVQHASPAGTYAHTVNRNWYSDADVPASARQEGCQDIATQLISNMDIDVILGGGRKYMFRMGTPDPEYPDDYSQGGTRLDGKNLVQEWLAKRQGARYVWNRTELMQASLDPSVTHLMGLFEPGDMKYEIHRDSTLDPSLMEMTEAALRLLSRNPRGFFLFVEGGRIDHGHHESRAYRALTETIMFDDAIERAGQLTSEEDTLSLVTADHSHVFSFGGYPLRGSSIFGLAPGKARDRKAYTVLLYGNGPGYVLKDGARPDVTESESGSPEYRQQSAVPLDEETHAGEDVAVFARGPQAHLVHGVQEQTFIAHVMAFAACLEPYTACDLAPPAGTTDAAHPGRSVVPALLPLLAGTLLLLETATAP

This is a selection; strong and weak results do not stand in their true shares. Potency and affinity values are given separately. Calls of active or inactive are those of the source. How the calls were made is not given here.

This experiment concerns the target Alkaline phosphatase, placental type (Homo sapiens) (UniProt P05187). In words: PLAP enzyme inhibitors, biochemical, luminescence, HTS (AID 690). The following applies: purified PLAP, luminescent substrate; at 20 µM; hits give high values.
On to `CP(=O)(Nc1ccc(Cl)cc1)Oc1ccc(F)cc1` (configuration not stated), for which the inhibition (commonly the change of the read-out against control, counted positive when it falls) is inactive: -14.8%.
In the case of `CC(C)(C)c1ccc(OP(C)(=O)O)cc1` it was inactive: -27.7%; in that of `CCN(CC)CC(O)COC(=O)C(O)(c1ccccc1)C1CCCCC1` (configuration not stated), inactive: -26.3%.
In the case of `CP(=O)(Oc1ccccc1)N1CCOC1=O` (configuration not stated), the inhibition was inactive: 13%.
Under `COc1ccccc1OP(C)(=O)Nc1c(C)n(C)n(-c2ccccc2)c1=O` (configuration not stated) stands inactive: 6.2%.
With `CP(=O)(OC12CC3CC(CC(C3)C1)C2)OC12CC3CC(CC(C3)C1)C2`, the inhibition was inactive: -55.5%.
In the case of `Cc1nc2ccc3ccccc3c2o1.O=[N+]([O-])c1cc([N+](=O)[O-])c(O)c([N+](=O)[O-])c1` it was inactive: 0.5%; in that of `COc1ccccc1OP(C)(=O)Nc1ccc(C)c(C)c1` (configuration not stated), inactive: -4.6%.
Under `Cc1c(NP(C)(=O)Oc2ccc(C(C)C)cc2)c(=O)n(-c2ccccc2)n1C` (configuration not stated) stands inactive: -43.5%; under `CCc1ccc(OP(C)(=O)O)cc1`, inactive: -65.6%; under `COc1ccccc1OP(C)(=O)Nc1ccc(C)cc1C` (configuration not stated), inactive: 2.4%.
In the case of `CP(=O)(Nc1ccccn1)Oc1ccccc1` (configuration not stated) it was inactive: 21.9%.
`CN(C)CCOC(=O)C(O)(c1ccccc1)C1CCCC1` (configuration not stated): the inhibition was inactive: -6.1%.
On to `COc1ccc(OP(C)(=O)Nc2ccccn2)cc1` (configuration not stated), for which the inhibition is inactive: 9.9%.
Under `CP(=O)(Nc1ccccc1F)Oc1ccccc1` (configuration not stated) stands inactive: 16%; under `CP(=O)(Nc1ccccc1)Oc1ccc(F)cc1` (configuration not stated), inactive: -12.5%; under `COc1ccc(OP(C)(=O)Nc2cccc(Br)c2)cc1` (configuration not stated), inactive: 9.3%.
Take `CN(C)CCOC(=O)C(O)(c1ccccc1)C1CCCCC1` (configuration not stated): the inhibition is inactive: -0.7%.
Consider `Cc1ccccc1NP(C)(=O)Nc1ccccc1C`, for which the inhibition is inactive: 9.3%.
In the case of `CCOP(C)(=S)SCC(=O)NC(C)(CC)C(=O)O` (configuration not stated) it was inactive: -9.7%; in that of `Cc1nc2ccc3ccccc3c2s1.O=[N+]([O-])c1cc([N+](=O)[O-])c(O)c([N+](=O)[O-])c1`, inactive: 18.5%; in that of `COc1ccccc1OP(C)(=O)Nc1c(C)cccc1C` (configuration not stated), inactive: 15.4%.
Under `Cc1cc(C)cc(OP(C)(=O)Nc2ccccn2)c1` (configuration not stated) stands inactive: 28.7%; under `Cc1ccc(C)c(NP(C)(=O)Oc2ccccc2)c1` (configuration not stated), inactive: -5.5%.
Under `Cc1cc(C)cc(OP(C)(=O)Nc2ccc(C)cc2C)c1` (configuration not stated) stands inactive: -21.1%; under `Cc1ccc(NP(C)(=O)Oc2ccccc2)c(C)c1` (configuration not stated), inactive: -37%; under `COc1ccccc1OP(C)(=O)Nc1ccc(C)cc1` (configuration not stated), inactive: 9.2%.
For `COc1ccc(OP(C)(=O)Nc2cccc(F)c2)cc1` (configuration not stated), the inhibition is inactive: -8.9%.
In the case of `CP(=S)(Nn1cnnc1)Oc1ccccc1` (configuration not stated) it was inactive: 27%; in that of `CCOP(C)(=S)SCC(=O)NC(C)C(=O)O` (configuration not stated), inactive: -20.6%; in that of `CP(=O)(Nc1ccccn1)Oc1ccc(Cl)cc1` (configuration not stated), inactive: 2.4%.
In the case of `CP(=O)(NC(=O)Nc1ccccc1)Oc1ccccc1` (configuration not stated) it was inactive: -11.4%.
